Values quoted from earlier work as cited in PMC8951016, “Computational Design and Biological Evaluation of Analogs of Lupin Peptide P5 Endowed with Dual PCSK9/HMG-CoAR Inhibiting Activity” (Pharmaceutics, 2022).

Chains of the proteins cited; added tags and fusions are not shown. Residues count along the entry.
UniProt Q8NBP7, 153-692 limits assumed: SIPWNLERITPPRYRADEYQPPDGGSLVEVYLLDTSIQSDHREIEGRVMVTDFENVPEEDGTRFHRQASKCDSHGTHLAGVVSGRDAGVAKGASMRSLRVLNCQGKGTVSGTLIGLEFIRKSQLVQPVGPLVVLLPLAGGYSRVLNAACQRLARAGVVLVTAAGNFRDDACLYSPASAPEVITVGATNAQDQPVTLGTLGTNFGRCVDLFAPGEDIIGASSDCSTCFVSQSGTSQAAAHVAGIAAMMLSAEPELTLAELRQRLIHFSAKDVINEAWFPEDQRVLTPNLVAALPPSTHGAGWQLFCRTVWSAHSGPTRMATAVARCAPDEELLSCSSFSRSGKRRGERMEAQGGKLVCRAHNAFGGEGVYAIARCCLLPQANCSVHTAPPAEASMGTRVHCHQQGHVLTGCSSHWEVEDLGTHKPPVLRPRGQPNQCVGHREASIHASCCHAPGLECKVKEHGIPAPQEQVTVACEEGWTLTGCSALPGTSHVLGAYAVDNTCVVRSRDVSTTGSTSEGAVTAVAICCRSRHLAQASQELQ
UniProt Q8NBP7, 31-152 partner limits assumed: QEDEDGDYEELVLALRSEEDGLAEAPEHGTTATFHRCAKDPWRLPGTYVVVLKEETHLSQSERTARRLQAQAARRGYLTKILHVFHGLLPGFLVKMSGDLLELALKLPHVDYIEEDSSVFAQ

What was measured:
[1] = tested on: LDLR on HepG2 cell surface; settings: human hepatic HepG2; cited from earlier work
LDL uptake, HepG2 cells = settings: human hepatic HepG2; cited from earlier work
PCSK9-LDLR = PCSK9-LDLR (Homo sapiens, UniProt Q8NBP7); settings: read-out: IC50, PCSK9/LDLR interaction (Rim13); poly-imidazole; cited from earlier work

SMILES: CNCCCCCn1cncc1-c1nc(-c2ncc(-c3ccc(OC)cc3)n2C)cn1Cc1ccccc1
- LDLR expression on HepG2 surface [1]: ability to modulate the LDLR expression
- extracellular LDL uptake by HepG2 (LDL uptake, HepG2 cells): capacity to increase the extracellular uptake of LDL
- IC50 (PCSK9-LDLR): 1400 nM
